The target in this assay is VLA4 (Homo sapiens, UniProt P05556+P13612). The experiment in a line: Inhibition of VLA4-dependent adhesion to BSA-CS1 (fluorescently labelled Ramos cells). The conditions noted are these: binding of BCECF-labelled Ramos cells to CS1 peptide-coated wells, 2 mM MnCl2, 30 minutes at room temperature. From the text:
For example, the cell adhesion inhibitory activity of these compounds may be measured by determining the concentration of inhibitor required to block the binding of VLA-4-expressing cells to fibronectin- or CS1-coated plates. In this assay microtiter wells are coated with either fibronectin (containing the CS-1 sequence) or CS-1. If CS-1 is used, it must be conjugated to a carrier protein, such as bovine serum albumin, in order to bind to the wells. Once the wells are coated, varying concentrations of the test compound are then added together with appropriately labelled, VLA-4-expressing cells. Alternatively, the test compound may be added first and allowed to incubate with the coated wells prior to the addition of the cells. The cells are allowed to incubate in the wells format least 30 minutes. Following incubation, the wells are emptied and washed. Inhibition of binding is measured by quantitating the fluorescence or radioactivity bound to the plate for each of the various concentrations of test compound, as well as for controls containing no test compound.
VLA-4-expressing cells that may be utilized in this assay include Ramos cells, Jurkat cells, A375 melanoma cells, as well as human peripheral blood lymophocytes (PBLs). […]
We dissolved BSA-SMCC (Pierce Chemical, Rockford, Ill.; Catalog,# 77115) in H2O at a concentration of 10 mg/mL. […] Samples were analyzed for cross-linking by SDS-PAGE. […]

Amino acid sequences for entries named in this document (tags omitted). Residues count along the entry.
UniProt P05556, 21-798 limits assumed: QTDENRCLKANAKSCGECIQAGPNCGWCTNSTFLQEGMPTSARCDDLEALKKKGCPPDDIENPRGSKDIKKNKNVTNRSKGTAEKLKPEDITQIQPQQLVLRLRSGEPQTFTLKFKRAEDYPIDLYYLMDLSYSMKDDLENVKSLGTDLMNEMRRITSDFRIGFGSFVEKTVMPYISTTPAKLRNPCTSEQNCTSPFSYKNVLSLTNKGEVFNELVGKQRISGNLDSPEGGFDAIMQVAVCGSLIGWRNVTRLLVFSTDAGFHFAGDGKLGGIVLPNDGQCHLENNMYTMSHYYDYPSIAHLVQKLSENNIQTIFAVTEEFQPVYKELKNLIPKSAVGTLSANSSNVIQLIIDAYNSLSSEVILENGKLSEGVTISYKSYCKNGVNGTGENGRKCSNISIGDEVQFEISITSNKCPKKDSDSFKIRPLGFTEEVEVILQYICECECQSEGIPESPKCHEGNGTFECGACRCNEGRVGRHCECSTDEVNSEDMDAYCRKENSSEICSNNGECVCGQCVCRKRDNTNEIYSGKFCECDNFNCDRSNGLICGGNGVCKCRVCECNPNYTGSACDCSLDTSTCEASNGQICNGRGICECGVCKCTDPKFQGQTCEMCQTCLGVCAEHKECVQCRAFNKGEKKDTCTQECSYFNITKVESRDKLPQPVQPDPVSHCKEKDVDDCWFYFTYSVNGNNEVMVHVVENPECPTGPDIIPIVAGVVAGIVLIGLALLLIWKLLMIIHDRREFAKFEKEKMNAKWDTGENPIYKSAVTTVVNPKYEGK
UniProt P13612, 34-1032 limits assumed: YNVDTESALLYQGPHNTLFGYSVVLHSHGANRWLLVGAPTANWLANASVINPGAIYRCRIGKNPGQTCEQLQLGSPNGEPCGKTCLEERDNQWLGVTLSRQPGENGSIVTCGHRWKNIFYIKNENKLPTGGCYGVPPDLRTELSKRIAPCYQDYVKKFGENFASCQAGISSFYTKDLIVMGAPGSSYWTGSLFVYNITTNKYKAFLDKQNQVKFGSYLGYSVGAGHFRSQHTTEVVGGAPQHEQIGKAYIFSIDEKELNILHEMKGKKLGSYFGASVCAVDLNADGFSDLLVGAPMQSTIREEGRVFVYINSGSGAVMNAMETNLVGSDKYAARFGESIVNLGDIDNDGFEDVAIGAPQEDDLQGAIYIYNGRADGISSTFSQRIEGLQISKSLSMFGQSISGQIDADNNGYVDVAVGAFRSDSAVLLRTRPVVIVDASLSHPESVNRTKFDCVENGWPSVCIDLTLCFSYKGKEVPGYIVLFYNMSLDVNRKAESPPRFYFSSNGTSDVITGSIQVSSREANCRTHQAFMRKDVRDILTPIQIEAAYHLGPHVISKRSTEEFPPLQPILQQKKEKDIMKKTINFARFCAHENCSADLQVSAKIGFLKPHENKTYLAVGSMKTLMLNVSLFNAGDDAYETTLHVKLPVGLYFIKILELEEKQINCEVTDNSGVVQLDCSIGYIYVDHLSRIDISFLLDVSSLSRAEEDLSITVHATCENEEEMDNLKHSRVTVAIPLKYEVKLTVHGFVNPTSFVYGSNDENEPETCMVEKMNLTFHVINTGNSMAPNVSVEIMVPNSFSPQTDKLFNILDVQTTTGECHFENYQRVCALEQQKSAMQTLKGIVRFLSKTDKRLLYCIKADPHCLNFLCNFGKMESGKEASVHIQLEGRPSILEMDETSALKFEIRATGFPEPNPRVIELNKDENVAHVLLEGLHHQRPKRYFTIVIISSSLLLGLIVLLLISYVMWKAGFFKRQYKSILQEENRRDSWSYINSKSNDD

Bounds are passed on as bounds.

With `Cc1ccccc1NC(=O)Nc1ccc(CC(=O)NC(CC(C)C)C(=O)NC(CC(=O)O)c2ccc3c(c2)OCO3)cn1` (stereo not shown), the IC50 – broadly, the concentration needed to halve the response being measured – was less than 50 nM.

The values are drawn from patent publication US20060166866A1, “Cell adhesion inhibitors” (Biogen, Inc., a Massachusetts corporation, priority 1995, published 2006).
